In ChEMBL document CHEMBL3585345 (ACS Med Chem Lett, 2015) one finds IC50 data, which are given here for one compound.

This assay has as its target T1, Aurora kinase A (Homo sapiens, UniProt O14965).
T1 sequence (O14965 whole entry): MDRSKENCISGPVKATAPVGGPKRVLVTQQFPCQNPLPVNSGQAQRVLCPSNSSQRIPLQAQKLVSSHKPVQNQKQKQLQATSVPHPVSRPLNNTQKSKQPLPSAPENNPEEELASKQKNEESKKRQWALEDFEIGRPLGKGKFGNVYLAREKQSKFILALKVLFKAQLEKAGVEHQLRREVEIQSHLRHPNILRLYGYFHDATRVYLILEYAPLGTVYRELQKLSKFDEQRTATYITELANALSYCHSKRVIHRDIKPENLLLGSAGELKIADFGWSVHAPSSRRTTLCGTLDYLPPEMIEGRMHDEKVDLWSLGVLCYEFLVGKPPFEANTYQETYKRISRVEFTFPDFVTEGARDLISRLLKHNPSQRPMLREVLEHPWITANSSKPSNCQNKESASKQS
Put plainly: Inhibition of aurora kinase A autophosphorylation at T288 in human HCT116 cells by immunofluorescence analysis. In kind it is cell-based, HCT-116.

As usually defined, the IC50 is the concentration at which inhibition is half-maximal. High values mean weaker potency in that assay, low ones greater potency in that assay. `O=C(O)c1ccc(Nc2ncc3c(n2)-c2ccc(Cl)cc2C(c2ccccc2F)=NC3)cc1` registered an IC50 of 170 nM.
